Our source for the inhibition values is ChEMBL document CHEMBL4706521, “Synthesis of indole inhibitors of silent information regulator 1 (SIRT1), and their evaluation as cytotoxic agents” (Eur J Med Chem, 2020).

In the assay the target is T1, NAD-dependent protein deacetylase sirtuin-2 (Homo sapiens) (UniProt Q8IXJ6).
T1 sequence (whole entry): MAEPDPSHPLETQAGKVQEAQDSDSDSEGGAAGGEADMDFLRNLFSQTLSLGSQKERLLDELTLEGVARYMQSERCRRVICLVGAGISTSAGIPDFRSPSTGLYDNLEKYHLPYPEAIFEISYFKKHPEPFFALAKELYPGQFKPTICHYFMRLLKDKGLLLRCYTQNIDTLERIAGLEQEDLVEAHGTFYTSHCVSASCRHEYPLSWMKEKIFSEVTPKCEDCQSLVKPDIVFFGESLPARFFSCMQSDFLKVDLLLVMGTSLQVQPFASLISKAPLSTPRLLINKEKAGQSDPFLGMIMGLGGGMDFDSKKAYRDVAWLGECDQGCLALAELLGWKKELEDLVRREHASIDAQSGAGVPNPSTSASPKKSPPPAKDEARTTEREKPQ
In words: Inhibition of recombinant human SIRT2 expressed in baculovirus infected SF9 cells expression system using RHKK(Ac)W-NH2 as substrate at 10 uM measured after 20 mins by HPLC method. A digest of the protocol:
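SIRT2 at about 100 nM (nominal) started the reaction, without preincubation, in kit buffer pH 8.0 with 2 mM NAD+ and 250 μM RHKK(Ac)W-NH2. Final DMSO was 1%. Reactions ran 20 min at 37 °C, keeping conversion at 2–8%, and were stopped with TFA. Substrate and product were separated by C18 HPLC (10–50% B gradient) and detected at 220 nm. Peak areas gave % conversion. Results were reported as IC50 (95% CI) or % inhibition (SD), from at least duplicates.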
With `CC(C)c1c(CC(N)=O)[nH]c2ccc(Cl)cc12`, the inhibition amounted to 39%.

With `Cc1c(CC(N)=O)[nH]c2ccc(Cl)cc12`, the inhibition is 0.34%.

`CC(C)c1c(CC(N)=O)[nH]c2ccc(Br)cc12`: the inhibition turned out to be 38%.

For `CC(C)(C)c1c(CC(N)=O)[nH]c2ccc(Cl)cc12`, the inhibition amounted to 74%.

With `CCCCc1c(CC(N)=O)[nH]c2ccc(Cl)cc12`, the inhibition was 42%.

Take `NC(=O)Cc1[nH]c2ccc(Cl)cc2c1Cc1ccccc1`: the inhibition is 84%.

As for `CCCCCc1c(CC(N)=O)[nH]c2ccc(Cl)cc12`, the inhibition came out at 68%.

Take `CCCc1c(CC(N)=O)[nH]c2ccc(Cl)cc12`: the inhibition came out at 22%.
